Laboratory results taken from ChEMBL document CHEMBL3132817 (Medchemcomm, 2013).

System: Bacillus subtilis
Test: Antibacterial activity against Bacillus subtilis assessed as complete growth inhibition after 24 hrs by standard microdilution assay

In the case of O=C(O)c1ccc(OCc2ccccc2)cc1, the MIC was > 400 µM.
